Measured values reported in article PMC10710878 (Journal of receptor and signal transduction research, 2022).
Like-named read-outs stand apart in the source and are kept apart here.

The chains behind the UniProt entries cited, without tags or fusion partners.
UniProt P22909, whole entry: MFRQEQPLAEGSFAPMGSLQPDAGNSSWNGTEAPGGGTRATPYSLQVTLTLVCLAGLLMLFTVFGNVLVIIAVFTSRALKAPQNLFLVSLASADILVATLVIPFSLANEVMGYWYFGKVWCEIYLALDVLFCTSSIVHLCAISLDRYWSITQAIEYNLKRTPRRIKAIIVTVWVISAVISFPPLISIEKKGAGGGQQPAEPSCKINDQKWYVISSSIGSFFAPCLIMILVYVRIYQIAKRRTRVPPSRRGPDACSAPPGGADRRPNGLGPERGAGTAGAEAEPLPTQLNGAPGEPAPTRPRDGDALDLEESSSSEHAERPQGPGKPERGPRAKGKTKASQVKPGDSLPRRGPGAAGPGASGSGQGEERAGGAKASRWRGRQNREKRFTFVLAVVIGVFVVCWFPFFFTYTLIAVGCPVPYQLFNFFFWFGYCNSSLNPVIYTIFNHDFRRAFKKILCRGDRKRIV

Target: α2A-AR (Rattus norvegicus, UniProt P22909)
Format: cell-based

Row | EC50 (EPI EC50, control, no RS79948) [nM] | EC50 (EPI EC50, pre-treatment with 3nM RS79948) [nM] | EC50 (EPI EC50, pre-treatment with 10nM RS79948) [nM] | EC50 (EPI EC50, pre-treatment with 30nM RS79948) [nM] | Compound | Kb [nM]
1 | 95 ± 16 | 423 ± 148 | 1210 ± 204 | 3220 ± 1950 | CNC[C@H](O)c1ccc(O)c(O)c1 [EPI, epinephrine] | 
2 |  |  |  |  | COc1cc2nc(N3CCN(C(=O)C4CCCO4)CC3)nc(N)c2cc1OC (stereo not drawn) [terazosin] | 5010
3 |  |  |  |  | Cc1cc(C(C)(C)C)cc(C)c1CC1=NCCN1 [xylometazoline] | 56.2
